## Yeast mating assay B: variants of the scFv Ab-14

Values reported by Li et al. 2023, doi:10.1038/s41467-023-39022-2 (FLAb copy).

Target: peptide PDVDLGDISGINAS, taken from heptad repeat 2 (HR2) of SARS-CoV-2 spike.

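These sequences belong to a second round, designed from the earlier measurements on random variants of the parent. Group labels follow the data file (Ctrl: baseline library sampled from a position-specific scoring matrix, with some repeated check sequences; Rand: our label for a block that the file lists under HC and that is probably the random mutants of the ten best first-round binders; En: ensemble of fine-tuned language models; GP: Gaussian process model; GPLM: also part of the Gaussian process libraries; HC: hill climbing; Gen: genetic algorithm; Gibbs: Gibbs sampling; a sequence that several methods proposed may carry one label only). The scFvs were displayed on barcoded MATa yeast, the peptide on MATalpha yeast. After mating in shaken culture at 30 °C for 16 h, diploids were selected and their barcode pairs sequenced. Scores were corrected for input abundance and mapped to Kd with protein pairs of known affinity run in the same pool. There are six technical replicates.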

Parent: Ab-14, a human scFv built as VH, the linker GGGGSGGGGSGGGGS, VL. Only the CDRs of the heavy chain vary.
VH: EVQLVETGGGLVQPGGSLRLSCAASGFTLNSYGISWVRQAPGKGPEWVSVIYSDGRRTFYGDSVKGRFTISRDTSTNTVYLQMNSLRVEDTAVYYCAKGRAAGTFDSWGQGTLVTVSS
VL: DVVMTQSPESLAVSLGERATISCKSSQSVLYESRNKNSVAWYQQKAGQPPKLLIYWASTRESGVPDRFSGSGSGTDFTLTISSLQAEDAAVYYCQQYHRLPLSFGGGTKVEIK

Each variant is given by its three heavy chain CDRs, as the data file delimits them; those of the parent are GFTLNSYGIS, VIYSDGRRTFYGDSVK, GRAAGTFDS.
This list holds designs with at most six substitutions.
Values are apparent Kd, the geometric mean of the replicates that gave a signal; lower means stronger binding.
An entry "no signal" has no value in the source: the pair was not observed among the diploids in any replicate. This suggests poor binding but is not conclusive.
The authors' rule: three or more of the six replicates give a measured affinity, fewer mean a poor binder.
The parent sequence was in this pool as ten entries: three were never detected, three once, and four in most replicates, with averages from 2.2 nM to 240 nM.
A sequence measured in both rounds can read differently, since the two assays cover different ranges.
Background: pairings of all heavy chain designs with three empty control strains gave a value in 1% of cases (median 120 nM, 5th percentile 7.0 nM). Values in that range, when seen in few replicates, are hard to tell from nonspecific mating.

| CDR-H1 | CDR-H2 | CDR-H3 | group | Kd | seen in |
|---|---|---|---|---|---|
| GFSLNDYGIS | VIYSDGRRTFYGDSVK | GHAAGTFDS | GPLM_Gibbs | 2.1 nM | 6/6 |
| GFELNSYGIS | VIYSDGRRTFYTDSVK | GDAAGTFDS | GPLM_Gibbs | 13 nM | 5/6 |
| GFDLNSYGIS | VIYSDGKRTFYVDSVK | GRVAGTFDS | GP_Gibbs | 700 pM | 6/6 |
| GFTLNEYGIS | VIYSDGRRTFYGDSVK | GRAAGSFRT | GP_HC | 35 nM | 1/6 |
| HFHLNSYGIS | VIYSDGRRTFYADSVK | GRTAGTFDS | GPLM_Gibbs | 17 nM | 6/6 |
| GFDLNSYGIS | VIYSDGMRTFYGDSVK | GRNAGTFDS | GP_Gen | 920 pM | 5/6 |
| GFTLNNYGIS | VIYSDGRRTFYSDSVK | GRAAGTFDS | GPLM_HC | 4.7 nM | 6/6 |
| GFQLNSYGIS | VIYSDGRRTFYQDSVK | GRTAGTFDS | GPLM_Gen | 46 nM | 6/6 |
| MFSLNSYGIS | VIYSDGRRTFYGDSVK | GQVAGTFDS | GP_Gibbs | 3.7 nM | 1/6 |
| GFTLNSYGIS | VIYADGRRTFYGDQVK | GKAAGTFDS | GPLM_Gen | 4.6 nM | 6/6 |
| GFTLNSYGIS | VIYADGRRTFYMDSVK | GRAGGTFSK | Ctrl | no signal | 0/6 |
| GFTLNSYGIS | VIYSDGRRTFYGDSVK | GQAAGTFDI | Ctrl | 11 nM | 6/6 |
| GFPLNSYGIS | VIYSDGRRTFYQDSVK | GQLAGTFDS | GP_HC | 3.5 nM | 3/6 |
| GFTLNSYGIS | VIYSDGRRTAYGDSVK | IRYAGTFDS | Ctrl | no signal | 0/6 |
| GFTLNSYGIS | VIYSDGRRTAYNDSVK | GRVAGTFDS | Ctrl | 7.1 nM | 6/6 |
| GFQLNEYGIS | VIYSDGRRTFYSDSVK | GQAAGTFDS | GPLM_Gibbs | 2.8 nM | 6/6 |
| GFCLNEYGIS | VIYSDGRRTFYGDSVK | GRAAGTFDL | Ctrl | 1.2 nM | 1/6 |
| GFNLNSYGIS | VIYSDGRRTFYDDSVK | GQVAGKFDS | GP_HC | 240 nM | 4/6 |
| SFSLNSYGIS | VIYSDGRRTFYGDSVK | GKTAGTFDS | GP_Gen | 28 nM | 5/6 |
| GFTLNDYGIS | VIYSDGRRTFYGDKVK | ARALLTFES | Rand | no signal | 0/6 |
| GFDLNSYGIS | VIYSDGRRTFYIDSVK | GQTAGTFDS | GP_Gen | 1.2 nM | 6/6 |
| GFELNDYPIS | VIYSDGRRTEYIDSVK | GRAAGTFDS | Rand | no signal | 0/6 |
| GFTLNSYGIS | VIYSDGRRTFYADSVK | GNEAGTFDT | GP_Gibbs | 770 pM | 6/6 |
| GFDLNSYGIS | VIYSDGRRTFYGDEVK | GRTAGTFDS | GP_Gen | 560 pM | 6/6 |
| GFDLNSYGIS | VIYSDGRRTFYGDSVK | GWAAGTFDD | GP_Gen | 8.7 nM | 6/6 |
| KFDLNSYGIS | VIYSDGRRTFYGDSVK | GNTAGTFDS | GP_Gen | 4.6 nM | 6/6 |
| GFTNNEYGIS | VIYSDGRRTFYGDSVK | GRTMGTFDS | Ctrl | 110 nM | 6/6 |
| GFDLNSYGIS | VIYSDGRRTFYGDSVK | GRQAGTFDS | GPLM_Gen | 2.2 nM | 6/6 |
| GFNLNSYGIS | VIYSDGRRTFYADRVK | GRQAGTFDS | GP_Gen | 28 nM | 6/6 |
| GDTLNMYGIS | VIYSDGRRTFYGDSVK | GRAAGTFDS | Ctrl | 71 nM | 6/6 |
| GFTLNSYGIS | VIYSDGKRTFYADDVK | GRVAGTFDV | GP_Gibbs | 1.1 nM | 6/6 |
| GFDLNSYGIS | VIYSDGRRTFYLDSVK | GQIAGTFDS | GP_HC | 9.9 nM | 6/6 |
| GFSLNSYGIS | VIYADGRRTFYGDQVK | GRTAGTFDS | GP_Gen | 1.9 nM | 6/6 |
| GFDLNSYGIS | VIYSDGRRTFYADMVK | GKAAGTFDS | GP_Gen | no signal | 0/6 |
| GFTLNSYGIS | VIYSDGRRTFYGDSVK | GSEAGTFDL | GP_Gibbs | 1.8 nM | 6/6 |
| GFTLNEYGIS | VIYSDGRRTFYSDSVK | GRTAGTFMS | GP_HC | 37 nM | 5/6 |
| GFNLDSYGIS | VIYSDGRRTFYSDSVK | GRAAGKFDS | Ctrl | no signal | 0/6 |
| GFSLNSYGIS | VIYSDGKRTFYADSVK | GNAAGTFDS | GPLM_Gen | 820 pM | 6/6 |
| GFGLNEYGIS | VIYSDGRRTFYTDSVK | GKAAGTFDS | GP_HC | 1.4 nM | 6/6 |
| GFNLNSYGIS | VIYSDGRRTFYIDSVK | GRMAGTFDS | GPLM_Gibbs | 43 nM | 6/6 |
| GFSLNSYGIS | VIYSDGRRTFYKDSVK | GWTAGTFDS | GP_Gen | 1.5 nM | 6/6 |
| GFQLNDYGIS | VIYSDGRRTFYADSVK | GRTAGTFDS | GPLM_Gibbs | 2.1 nM | 6/6 |
| GFHLNSYGIS | VIYSDGRRTFYQDSVK | GREAGTFDD | GP_Gibbs | 19 nM | 2/6 |
| GFDLNNYGIS | VIYSDGKRTFYGDSVK | GRTAGTFDS | GP_Gibbs | 980 pM | 6/6 |
| GFTLNSYGIS | VIYSDGYRTEYGDSVK | QRAIGTGDS | Ctrl | no signal | 0/6 |
| GFALNSYGIS | VIYSDGRRTFYGDQVK | QRAVGTFDS | Ctrl | no signal | 0/6 |
| YFQLNEYGIS | VIYSDGRRTFYGDSVK | GRNAGTFDS | GP_Gibbs | no signal | 0/6 |
| GFSLNEYGIS | VIYSDGRRTFYMDSVK | GRTAGTFDA | GP_Gibbs | 1.7 nM | 6/6 |
| GFTLNDYGIS | VIYSDGRRTSYGDAVK | GRAAGTFWS | Ctrl | 62 nM | 1/6 |
| GFTLNSYGIS | VIYADGRRTFYGDSVK | GRLAGTFKS | GPLM_HC | no signal | 0/6 |
| GFNLNSYGIS | VIYSDGRRTFYTDSVK | GRAAGTFDS | GP_Gibbs | 7.0 nM | 6/6 |
| GKNLNSYGIS | VIYSDGRRTFYGDQVK | GRTAGTFDS | GP_Gibbs | 60 nM | 3/6 |
| GFSLNSYGIS | VIYSDGRRTFYVDSVK | GRTAGTFDS | GPLM_Gen | 5.5 nM | 3/6 |
| GFPLNEYGIS | VIYSDGRRTFYGDSVK | GQTAGTFDS | GP_Gen | 7.6 nM | 6/6 |
| GFDLKSYGIS | VIYSDGRRTFYGDSVK | GRTAGTFDS | GP_Gen | 1.2 nM | 6/6 |
| GFSLNSYGIS | VIYSDGKRTFYGDSVK | GEAAGTFDS | GPLM_Gen | 2.3 nM | 6/6 |
| GFTLNSYGIS | VIYSDGRRTFYGDSVT | GRVAGTFCS | Ctrl | no signal | 0/6 |
| GVTLNEYGIS | VIYSDGRRTFYGDSVK | GRAAGTFDE | Ctrl | no signal | 0/6 |
| GFTLNEYGIS | VIYSDGRRTQYSDSVK | GRAAGTFDS | GP_HC | 8.3 nM | 6/6 |
| GFHLNSYGIS | VIYSDGMRTFYKDSVK | GRTAGTFDS | GP_Gibbs | 30 nM | 6/6 |
| GFDLNSYGIS | VIYSDGRRTFYKDSVK | GRTAGTFDS | GPLM_Gen | 2.8 nM | 6/6 |
| GFTLNSYGIS | VIYSDGRRTFYHDSVK | GKEAGTFDT | GP_Gibbs | 6.8 nM | 6/6 |
| GFDLNEYGIS | VIYADGRRTFYADSVK | GEAAGTFDT | En_HC | 220 pM | 6/6 |
| GFTLNEYGIS | VIYSDGRRTFYGDNVK | GRAAGTFDS | Ctrl | 36 nM | 3/6 |
| GFTLNSYGIS | VIYSDGRRTFYGDSVK | GRAAGHKDS | Ctrl | no signal | 0/6 |
| GFVLNSYGIS | VIYADGRRTFYGDSVK | GRAAGTFDL | Ctrl | 590 nM | 4/6 |
| GFTLNSYGIS | VIYSDGRRTFYDDSVK | GRKAGTFHS | Ctrl | no signal | 0/6 |
| GFTLNSYGIS | VIYSDGRRTFYTDSVK | GMRAGTFDS | GP_HC | 120 nM | 4/6 |
| GFELNEYGIS | VIYSDGRRTFYGDSVK | GRMAGTFDS | GP_Gen | no signal | 0/6 |
| GFDLNSYGIS | VIYSDGRRTFYQDSVK | GWAAGTFDS | GP_Gen | 9.6 nM | 6/6 |
| GNTLNSYGIS | VIYSDGRRTFYRDSVK | GRAAGTFDS | Ctrl | 410 nM | 3/6 |
| GFGLNSYGIS | VIYSDGRRTFYADSVK | GSEAGTFDS | GP_Gibbs | 480 pM | 6/6 |
| GFTLNDYGIS | VIYSDGRRTFYGDSVK | GRVAGTFES | GP_HC | 3.1 nM | 6/6 |
| GFTINSYGIS | VIYFDGRRTFYTDSVK | GRWAGSFDS | Ctrl | no signal | 0/6 |
| GFTLNEAGIS | VIYSDGRRTIYGDSVK | GRAIGTFDS | Ctrl | no signal | 0/6 |

Repeated from above, the 10 best binders with a signal in all replicates:

CDR-H1	CDR-H2	CDR-H3	group	Kd	seen in
GFDLNEYGIS	VIYADGRRTFYADSVK	GEAAGTFDT	En_HC	220 pM	6/6
GFGLNSYGIS	VIYSDGRRTFYADSVK	GSEAGTFDS	GP_Gibbs	480 pM	6/6
GFDLNSYGIS	VIYSDGRRTFYGDEVK	GRTAGTFDS	GP_Gen	560 pM	6/6
GFDLNSYGIS	VIYSDGKRTFYVDSVK	GRVAGTFDS	GP_Gibbs	700 pM	6/6
GFTLNSYGIS	VIYSDGRRTFYADSVK	GNEAGTFDT	GP_Gibbs	770 pM	6/6
GFSLNSYGIS	VIYSDGKRTFYADSVK	GNAAGTFDS	GPLM_Gen	820 pM	6/6
GFDLNNYGIS	VIYSDGKRTFYGDSVK	GRTAGTFDS	GP_Gibbs	980 pM	6/6
GFTLNSYGIS	VIYSDGKRTFYADDVK	GRVAGTFDV	GP_Gibbs	1.1 nM	6/6
GFDLNSYGIS	VIYSDGRRTFYIDSVK	GQTAGTFDS	GP_Gen	1.2 nM	6/6
GFDLKSYGIS	VIYSDGRRTFYGDSVK	GRTAGTFDS	GP_Gen	1.2 nM	6/6